Results on eight molecules are retold here after PubChem BioAssay.

Chains of the proteins cited; added tags and fusions are not shown. Lines headed by an entry give the natural chain unless they say otherwise; changes in a name come on top.
UniProt P04839: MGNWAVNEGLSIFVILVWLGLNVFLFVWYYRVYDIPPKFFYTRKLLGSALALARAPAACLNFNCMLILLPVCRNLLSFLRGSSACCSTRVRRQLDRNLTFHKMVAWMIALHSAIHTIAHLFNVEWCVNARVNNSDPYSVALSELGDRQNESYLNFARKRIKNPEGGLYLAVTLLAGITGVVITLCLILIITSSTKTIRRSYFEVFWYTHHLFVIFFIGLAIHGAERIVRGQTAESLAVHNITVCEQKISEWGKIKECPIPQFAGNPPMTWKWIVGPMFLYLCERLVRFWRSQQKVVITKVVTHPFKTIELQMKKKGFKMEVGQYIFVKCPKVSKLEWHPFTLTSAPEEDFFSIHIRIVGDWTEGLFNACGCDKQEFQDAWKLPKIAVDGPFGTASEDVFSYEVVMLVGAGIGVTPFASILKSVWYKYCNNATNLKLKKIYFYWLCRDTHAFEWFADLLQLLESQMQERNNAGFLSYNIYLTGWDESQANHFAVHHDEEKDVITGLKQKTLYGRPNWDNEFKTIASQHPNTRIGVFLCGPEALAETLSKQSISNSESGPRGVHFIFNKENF
UniProt Q9NPH5: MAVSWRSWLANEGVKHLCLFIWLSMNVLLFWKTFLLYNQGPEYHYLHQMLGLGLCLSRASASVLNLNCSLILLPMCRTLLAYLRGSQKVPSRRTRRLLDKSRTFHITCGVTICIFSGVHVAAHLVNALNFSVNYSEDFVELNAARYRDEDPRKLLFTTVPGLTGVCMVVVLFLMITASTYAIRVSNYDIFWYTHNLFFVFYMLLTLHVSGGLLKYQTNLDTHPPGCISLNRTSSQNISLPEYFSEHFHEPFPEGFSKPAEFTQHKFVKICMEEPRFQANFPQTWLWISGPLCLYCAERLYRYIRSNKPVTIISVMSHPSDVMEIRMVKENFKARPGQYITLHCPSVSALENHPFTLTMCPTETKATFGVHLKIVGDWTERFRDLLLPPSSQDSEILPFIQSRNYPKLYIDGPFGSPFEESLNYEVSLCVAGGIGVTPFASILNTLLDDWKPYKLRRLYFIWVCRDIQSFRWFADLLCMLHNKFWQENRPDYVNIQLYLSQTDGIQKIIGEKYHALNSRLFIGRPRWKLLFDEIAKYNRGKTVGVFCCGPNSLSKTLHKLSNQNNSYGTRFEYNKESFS
UniProt Q96PH1: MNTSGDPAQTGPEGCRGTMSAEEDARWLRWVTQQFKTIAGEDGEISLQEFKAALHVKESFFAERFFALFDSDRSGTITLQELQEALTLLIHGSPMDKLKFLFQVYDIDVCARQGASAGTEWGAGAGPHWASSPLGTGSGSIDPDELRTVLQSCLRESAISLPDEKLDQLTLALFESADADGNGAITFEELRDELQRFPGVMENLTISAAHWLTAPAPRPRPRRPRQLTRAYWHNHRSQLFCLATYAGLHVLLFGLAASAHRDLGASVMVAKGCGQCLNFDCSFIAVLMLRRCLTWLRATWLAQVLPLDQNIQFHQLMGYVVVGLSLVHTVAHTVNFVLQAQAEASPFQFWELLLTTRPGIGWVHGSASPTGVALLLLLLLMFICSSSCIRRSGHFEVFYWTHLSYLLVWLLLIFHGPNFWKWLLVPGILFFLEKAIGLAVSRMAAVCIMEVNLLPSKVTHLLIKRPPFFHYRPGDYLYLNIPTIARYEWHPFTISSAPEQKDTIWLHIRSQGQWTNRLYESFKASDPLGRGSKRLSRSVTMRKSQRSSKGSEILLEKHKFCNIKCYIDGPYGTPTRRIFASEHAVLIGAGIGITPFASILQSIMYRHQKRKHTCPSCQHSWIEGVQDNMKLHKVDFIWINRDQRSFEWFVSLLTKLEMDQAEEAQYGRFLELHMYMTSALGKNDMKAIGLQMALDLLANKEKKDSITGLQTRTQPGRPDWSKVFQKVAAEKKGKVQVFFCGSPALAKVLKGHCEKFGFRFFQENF

The nature of assay [1]: small-molecule binders of probe aLefty1, primary screen, biochemical, small-molecule microarray, 635/667 nm fluorescence (AID 1153).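 Note: score merges spot fluorescence with signal-to-noise ratio from the scanned slide images.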 The note with it: higher = more signal.
A short description of assay [2]: osmotic lysis modulators in infected erythrocytes, primary screen, PSAC antagonist project, cell-based, P. falciparum Indochina, OD700, 3 h (AID 1156). The conditions noted are these: higher = more signal, called active from +8 up or from −8 down.
Assay [3] can be described thus: PSAC antagonists in infected red cells, primary screen, cell-based, P. falciparum Indochina, OD700, 18 h (AID 1157). The conditions noted are these: P. falciparum Indochina infected erythrocytes, osmotic lysis OD700, 18 h; higher = more signal, called active from +8 up or from −8 down.
A short description of assay [4]: modulators of S6 phosphorylation in cells, primary screen, cell-based, A549, cytoblot, luminescence, serum-stimulated (AID 1158).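 Note: serum-stimulated A549 lung adenocarcinoma cells; signal is phosphorylated S6 detected by cytoblot immunostaining with HRP secondary.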 The note with it: A549 phospho-S6 cytoblot, 5 h, higher = more signal.
The target of assay [5] is NADPH oxidase 2 (Homo sapiens) (UniProt P04839). Kind of assay: NOX2-dependent H2O2 signal modulators, primary screen, NOX inhibitor project, cell-based, HEK293-NOX2, PMA-stimulated, Amplex Red fluorescence (AID 1159). Note: test concentration not given here. The note with it: 45 min, higher = more signal, called active from +8 up or from −8 down.
The target in assay [6] is NADPH oxidase 4 (Homo sapiens) (UniProt Q9NPH5). Nature of the assay: NOX4-dependent H2O2 signal modulators, primary screen, NOX inhibitor project, cell-based, HEK293-NOX4, tetracycline-induced, Amplex Red fluorescence (AID 1160). The conditions noted are these: 45 min, higher = more signal, called active from +8 up or from −8 down.
In assay [7] the target is NADPH oxidase 5 (Homo sapiens) (UniProt Q96PH1). Nature of the assay: NOX5-dependent H2O2 signal modulators, primary screen, NOX inhibitor project, cell-based, HEK293-NOX5, Amplex Red fluorescence (AID 1161). The conditions noted are these: HEK293-NOX5, ionomycin, 45 min, higher = more signal.
Assay [8] is described as follows: A549 cell viability effects, profiling panel, calcein-AM fluorescence, 48 h, basal (AID 1162). Note: test concentration not given here. The conditions noted are these: higher = more signal.
Assay [9] in a line: adipocyte viability effects, profiling panel, cell-based, 3T3-L1 adipocytes, calcein-AM fluorescence, 48 h, basal (AID 1163). Note: test concentration not given here. The conditions noted are these: 3T3-L1 adipocytes viability, higher = more signal.
Assay [10] can be described thus: HepG2 cell viability effects, profiling panel, calcein-AM fluorescence, 48 h, basal (AID 1164). Note: test concentration not given here. The conditions noted are these: higher = more signal.
The nature of assay [11]: MM1S cell viability effects, profiling panel, calcein-AM fluorescence, 48 h, basal (AID 1165).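 Note: viability of MM1S multiple myeloma cells under basal unstimulated conditions; test concentration not given here.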 The note with it: higher = more signal.
Assay [12] in a line: basal RPMI8226 viability, no added stimulus, profiling panel, cell-based, calcein-AM fluorescence, 48 h, PK04 Diversity Set (AID 1166).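 Note: cells grown under basal conditions without added stimulus; test concentration not given here.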 The conditions noted are these: RPMI8226 myeloma viability, higher = more signal.
The nature of assay [13]: basal HepG2 mitochondrial membrane potential changes, profiling panel, cell-based, JC-1 fluorescence, 24 h, 100 nL compound (AID 1167). Note: test concentration not given here. The note with it: higher = more signal.
The nature of assay [14]: basal 3T3-L1 adipocyte mitochondrial potential changes, profiling panel, cell-based, JC-1 fluorescence, 3T3-L1 adipocytes, 24 h, 100 nL compound (AID 1168). Note: test concentration not given here. The conditions noted are these: JC-1 mitochondrial fluorescence, higher = more signal, called active from +8 up or from −8 down.
Assay [15] in a line: basal RPMI8226 mitochondrial membrane potential changes, profiling panel, cell-based, JC-1 fluorescence, 24 h, 100 nL compound (AID 1169). Note: test concentration not given here. The conditions noted are these: RPMI8226 myeloma, JC-1 mitochondrial potential fluorescence, higher = more signal.
Assay [16] can be described thus: basal MM1S mitochondrial membrane potential changes, profiling panel, cell-based, JC-1 fluorescence, 24 h, 100 nL compound (AID 1170). Note: test concentration not given here. The note with it: higher = more signal.
A short description of assay [17]: A549 lung cancer cell viability effects, profiling panel, resazurin fluorescence, 24 h, PK04 Diversity Set (AID 1171). Note: test concentration not given here. The note with it: higher = more signal, called active from +8 up or from −8 down. Background: The colour change of resazurin is a common sign of viable cells or microbes.
Assay [18] can be described thus: HepG2 liver cancer cell viability effects, profiling panel, resazurin fluorescence, 24 h, PK04 Diversity Set (AID 1172). Note: test concentration not given here. The conditions noted are these: higher = more signal.
Assay [19] is described as follows: basal S. cerevisiae growth modulation, no modifier, primary screen, OD600, strain BY4716, 24 h, basal condition (AID 1173). The note with it: OD600, 24 h, higher = more signal, called active from +8 up or from −8 down.
A short description of assay [20]: MM1S myeloma cell viability, profiling panel, resazurin fluorescence, basal, 24 h, PK04 Diversity Set (AID 1174).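 Note: MM1S multiple myeloma cell line; test concentration not given here.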 The conditions noted are these: higher = more signal, called active from +8 up or from −8 down.

Only a part is listed here, and it is no random draw. This is one part of the list. Active and inactive are the calls of the source.

With `COP(=O)(/N=C1/CC(CCCO)=CC(c2ccc(CN3CCCC3)cc2)N1Cc1cccc(OC(F)(F)F)c1)OC` (stereo not given), in assay [1], the composite z-score was determined as 0.547. Further, the z-score in [2] is inactive: 1.43; in [3], inactive: -0.799; in assay [4] it was 2.13; in assay [5] it was inactive: -3.08; in assay [6], inactive: -0.684; in assay [7], -0.507. The z-score in [8] was 1.47; in assay [9], 0.613; in assay [10] it was 1.35; in [11], -3.32; in assay [12], -0.145; in assay [13], 2.86. Further, the z-score was inactive: -0.059 in assay [14]; -0.703 in assay [15]; -2.06 in assay [16]; inactive: 0.634 in [17]; -0.495 in assay [18]; inactive: -2.92 in [19]. Besides, in assay [20], the z-score was inactive: 0.0702.
Turning to `COP(=O)(/N=C1/CC(CCCO)=CC(C2CC2)N1C)OC` (stereo not given), the composite z-score in [1] is -0.509. Further, the z-score in assay [2] was inactive: -0.451; in assay [3] it was inactive: -2.51; in assay [4] it was 2.98; in [5], inactive: -0.919; in assay [6] it was inactive: -0.495; in [7] it was -0.0774. The z-score in [8] is 1.1; in assay [9] it was 1.15; in [10], 0.994; in assay [11], 0.927; in [12] it was 0.596; in [13], 1.41. Also, the z-score in assay [14] is inactive: 0.625; in [15], -0.628; in [16], -0.154; in [17], inactive: -0.821; in assay [18], -0.474; in assay [19], inactive: -0.769. Besides, in assay [20], the z-score is inactive: 0.235.
As to `COP(=O)(/N=C1/CC(c2ccc(CO)cc2)=CC(C2CC2)N1Cc1cc2c(cc1Br)OCO2)OC` (stereo not given), the composite z-score in assay [1] amounted to 0.77. Besides, the z-score in assay [2] is inactive: 0.681; in assay [3], inactive: -0.85; in assay [4], 1.69; in [5], inactive: 1.4; in [6], inactive: 0.601; in [7], 0.513. For the same molecule, the z-score was 1.18 in [8]; 1.25 in assay [9]; 1.34 in [10]; -0.953 in assay [11]; -2.02 in assay [12]; 3.17 in assay [13]. Also, the z-score is inactive: 0.42 in assay [14]; -0.393 in assay [15]; 0.0277 in [16]; inactive: -0.126 in assay [17]; 0.0523 in assay [18]; inactive: -5.74 in assay [19]. For the same molecule, the z-score in assay [20] is inactive: -0.248.
In assay [1], `COP(=O)(/N=C1/CC(c2ccc(CO)cc2)=CC(C2CC2)N1C)OC` (stereo not given) registered a composite z-score of 0.0678. For the same molecule, the z-score in assay [2] is inactive: 0.328; in assay [3] it was inactive: -1.9; in [4], 1.87; in [5], inactive: -2.93; in [6], inactive: -0.608; in [7] it was 0.0683. The z-score in assay [8] was 2.99; in assay [9], 1.48; in assay [10], 1.65; in assay [11] it was -0.331; in [12] it was 2.13; in assay [13], 0.845. Moreover, the z-score in assay [14] was inactive: -0.794; in assay [15], -0.595; in assay [16], -1.25; in assay [17], inactive: 0.393; in [18] it was 0.346; in [19], inactive: -2.75. The z-score in assay [20] was inactive: 0.486.
Molecule `O=P(/N=C1/CC(c2ccc(CO)cc2)=CC(C2CC2)N1Cc1cc2c(cc1Br)OCO2)(Oc1ccccc1)Oc1ccccc1` (stereo not given) came in with a composite z-score in assay [1] of 0.0654. The z-score was inactive: -0.768 in assay [2]; inactive: 0.672 in assay [3]; 0.0935 in assay [4]; inactive: -0.0846 in [5]; inactive: 0.371 in assay [6]; 0.798 in assay [7]. In addition, the z-score in assay [8] was -0.634; in [9], 0.972; in assay [10], -0.554; in assay [11] it was -2.24; in assay [12], -4.51; in assay [13], -0.225. The z-score is inactive: 0.816 in assay [14]; -0.975 in assay [15]; -2.42 in [16]; inactive: -0.798 in assay [17]; 0.503 in [18]; inactive: -1.33 in assay [19]. For the same molecule, in [20], the z-score was inactive: -1.41.
On to `O=P(/N=C1/CC(CCCO)=CC(C2CC2)N1Cc1cc2c(cc1Br)OCO2)(Oc1ccccc1)Oc1ccccc1` (stereo not given), for which, in [1], the composite z-score came to 0.345. Further, the z-score in assay [2] was inactive: 0.368; in [3], inactive: 0.626; in assay [4], 0.118; in assay [5] it was inactive: -0.312; in assay [6], inactive: -0.406; in [7], -0.393. Besides, the z-score in assay [8] was -0.525; in [9], 0.171; in assay [10], -1.17; in assay [11], -1.85; in assay [12] it was -0.928; in assay [13], 0.661. Further, the z-score is inactive: -0.555 in assay [14]; 0.47 in [15]; 0.634 in assay [16]; inactive: 0.262 in [17]; 0.0544 in [18]; inactive: -2.24 in [19]. In addition, in assay [20], the z-score was inactive: -0.362.
With `CN1/C(=N\P(=O)(Oc2ccccc2)Oc2ccccc2)CC(c2ccc(CO)cc2)=CC1C1CC1` (stereo not given), in [1], the composite z-score was -0.137. Further, the z-score is inactive: -0.798 in [2]; inactive: -1.66 in assay [3]; 1.28 in assay [4]; inactive: -1.65 in assay [5]; inactive: -0.564 in assay [6]; -1.19 in assay [7]. The z-score in assay [8] was 1.6; in assay [9], 0.104; in assay [10], 0.417; in assay [11], 0.88; in assay [12] it was 1.22; in assay [13] it was 1.93. For the same molecule, the z-score was inactive: 0.644 in assay [14]; -0.127 in assay [15]; 1.65 in [16]; inactive: 0.959 in assay [17]; 0.65 in [18]; inactive: -1.19 in [19]. Besides, the z-score in assay [20] is inactive: 1.09.
On to `O=P(/N=C1/CC(CCCO)=CC(c2cccs2)N1Cc1cccc(OC(F)(F)F)c1)(Oc1ccccc1)Oc1ccccc1` (stereo not given), for which the composite z-score in assay [1] worked out at 0.388. Also, the z-score was inactive: 0.751 in assay [2]; inactive: 1.19 in assay [3]; -0.12 in assay [4]; inactive: -0.325 in assay [5]; inactive: -0.455 in assay [6]; 0.711 in assay [7]. In addition, the z-score was 0.61 in assay [8]; 0.366 in assay [9]; 0.544 in [10]; -2.8 in [11]; -1.23 in assay [12]; -0.362 in [13]. In addition, the z-score was inactive: 0.458 in assay [14]; -0.912 in assay [15]; 1.49 in assay [16]; inactive: -0.68 in [17]; -0.624 in assay [18]; inactive: -3.69 in assay [19]. For the same molecule, in assay [20], the z-score was inactive: 0.355.
